Reference: paper PMC4705222, “Identification of a Catalase-Phenol Oxidase in Betalain Biosynthesis in Red Amaranth (Amaranthus cruentus)” (Frontiers in Plant Science, 2016)

Sequences of proteins named here, by UniProt entry; tags and fusion partners are left off. Residues count along the entry.
UniProt A0A2Z0PTH5, 1-492: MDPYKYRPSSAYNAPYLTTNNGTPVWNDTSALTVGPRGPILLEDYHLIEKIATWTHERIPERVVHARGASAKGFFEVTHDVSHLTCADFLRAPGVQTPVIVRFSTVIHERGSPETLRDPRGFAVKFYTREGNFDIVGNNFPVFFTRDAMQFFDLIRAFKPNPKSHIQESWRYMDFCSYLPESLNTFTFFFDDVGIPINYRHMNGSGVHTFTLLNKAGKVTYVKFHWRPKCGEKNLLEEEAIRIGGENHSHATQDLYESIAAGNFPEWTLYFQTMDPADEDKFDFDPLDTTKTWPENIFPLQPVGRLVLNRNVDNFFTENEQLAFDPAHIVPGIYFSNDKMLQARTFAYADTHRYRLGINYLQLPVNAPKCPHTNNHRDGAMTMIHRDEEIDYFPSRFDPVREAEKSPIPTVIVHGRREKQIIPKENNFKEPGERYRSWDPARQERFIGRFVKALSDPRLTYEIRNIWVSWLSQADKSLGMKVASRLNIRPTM

Biological target: AcCATPO (Amaranthus cruentus, UniProt A0A2Z0PTH5)
Experiment: catalase activity, H2O2 decrease at […] nm
Settings: H2O2 substrate (14 mM in standard assay), pH 7.0, 20 °C

## [N-]=[N+]=N
  % loss of activity at 1 mM: ~ 95%
